Compound activity from PubChem.
An excerpt weighted towards active compounds, which were near 16% of everything screened.
TDP1 cell CPT – growth inhibition of DT40 Tdp1-/-;hTDP1 cells with camptothecin (screen for TDP1 inhibitors); chicken DT40 Tdp1-/-;hTDP1 cells + 20 nM CPT, ATP luminescence, 48 h; Potency, µM (titrated, usually from 46.2 µM), actives largely listed as inhibitors; hit rate 12% among 420,000; also: nearly all actives have a fitted effect of over 55% in size
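Chicken DT40 Tdp1-/- cells stably complemented with human TDP1 were seeded at 400 cells/well in medium containing 20 nM camptothecin, exposed to pin-transferred compounds, and grown at 37 °C for at least 48 hr. Viability was read as ATP luminescence.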
TDP1 inh – blocks human tyrosyl-DNA phosphodiesterase 1 | recombinant TDP1, AlphaScreen DNA substrate cleavage | hit rate 0.28% among 350,000 | Q9NUW8 | Potency, µM (titrated, usually from 130 µM), actives largely listed as inhibitors; also: nearly all actives have a fitted effect of over 40% in size
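Steps: enzyme plus compound, 15 min RT; add biotin/phosphotyrosine-FITC oligonucleotide (15 nM final), react 5 min; add donor/acceptor beads (10 ug/ml final), 10 min; read AlphaScreen. Tdp1 at 1 nM final.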
uPA generation – cell surface uPA generation inhibition. Potency, µM (top dose mostly 38.3 µM), usual class: inhibitors. hit rate 0.31% among 330,000. cell surface uPA generation assay, qHTS; active = well fitted inhibition curve with a large enough effect; inconclusive = small, poorly fitted or top-dose-only effect; inactive = no such curve, though single readings can be large or run the other way; tested in mouse RAW 264.7 cells; also: nearly all actives have a fitted effect of over 55% in size
miR-21 FLuc – miR-21 reporter, rising signal | HeLa miR-21 FLuc reporter, luciferase, 48 h | Potency, µM (top dose mostly 38.3 µM) | 340,000 tested, under 10 active | AID 2288; active = well fitted rising curve with a large enough effect; inconclusive = small, poorly fitted or top-dose-only effect; inactive = no such curve, though single readings can be large or run the other way;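 further: miR-21 action dims this reporter so a rising signal means less miR-21 action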
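HeLa miR-21-FLuc reporter line, endogenous miR-21; 2000 cells/well in DMEM/10% FBS; compound titration up to ~40uM final, 48 h, 37 degree Celsius; luciferase detection reagent, 15 min lysis, CCD luminescence.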
DT40 TDP1 no CPT – qHTS for Inhibitors of human tyrosyl-DNA phosphodiesterase 1 (TDP1): qHTS in cells in absence of CPT | DT40 Tdp1-/- hTDP1 cells, no CPT, ATP luminescence, 48 h | Potency, µM (highest dose often 46.2 µM), hits mostly inhibitors | hit rate 15% among 420,000 | AID 686978, 2013; also: nearly all actives have a fitted effect of over 55% in size
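Luminescent ATP content (CellTiter-Glo) served as the growth readout. Knockout chicken DT40 cells expressing human TDP1 were exposed to compounds without camptothecin for a minimum 48 hr at 37 °C.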
Numbers stand for hits. Unless noted, calls follow the shape of the dose curve; as a rule, active = well fitted curve in the direction sought with a large enough effect; inconclusive = small, poorly fitted or top-dose-only effect, or another doubt; inactive = no such curve, though single readings can be large; an effect the other way counts as inactive or inconclusive.

For CN(C)S(=O)(=O)c1ccc(N2CCCC2)c(C(=O)N2CCN(S(=O)(=O)c3ccc(F)c(F)c3)CC2)c1 the results were TDP1 cell CPT inactive, uPA generation inactive and DT40 TDP1 no CPT inactive.
O=C(NCCc1c[nH]c2ccccc12)c1cc(S(=O)(=O)N2CCCCC2)ccc1N1CCOCC1 was read as TDP1 cell CPT inconclusive, TDP1 inh inactive, uPA generation inactive, miR-21 FLuc inactive and DT40 TDP1 no CPT 13µM.
CCCNC(=O)c1cc(S(=O)(=O)N2CCCCC2)ccc1N1CCOCC1 was read as TDP1 cell CPT inactive, TDP1 inh inactive, uPA generation inactive and DT40 TDP1 no CPT inactive.
Screening COc1ccc(CNC(=O)c2cc(S(=O)(=O)N3CCCCC3)ccc2N2CCOCC2)cc1OC returned TDP1 cell CPT inconclusive, uPA generation inactive and DT40 TDP1 no CPT 9.2µM.
For COc1ccc(CCNC(=O)c2cc(S(=O)(=O)N3CCOCC3)ccc2N2CCCC2)cc1OC the results were TDP1 cell CPT inactive, TDP1 inh inactive, uPA generation inactive and DT40 TDP1 no CPT inactive.
`Cc1[nH]c(C)c(S(=O)(=O)N2CCN(c3ccccc3)CC2)c1C(=O)N1CCCCC1` gave TDP1 cell CPT inactive, TDP1 inh inactive, uPA generation inactive, miR-21 FLuc inactive and DT40 TDP1 no CPT inactive.
`CC1=NN(c2ccccc2)C(=O)C1C(=O)c1ccc(Cl)cc1` (stereo not drawn) gave TDP1 cell CPT 21µM, TDP1 inh inactive, uPA generation inconclusive, miR-21 FLuc inactive and DT40 TDP1 no CPT 23µM.
For CC1=NN(c2ccccc2)C(=O)C1C(=O)C(=O)Nc1ccc(F)cc1 (stereo not drawn) the results were TDP1 cell CPT inconclusive, TDP1 inh inactive, uPA generation inactive, miR-21 FLuc inactive and DT40 TDP1 no CPT inconclusive.
For CCOC(=O)N1CCN(C2CCCN(C(=O)c3ccccc3C(F)(F)F)C2)CC1 (stereo not drawn) the results were TDP1 cell CPT inactive, TDP1 inh inactive, uPA generation inactive, miR-21 FLuc inactive and DT40 TDP1 no CPT inactive.
Screening COc1cc(-c2cc(C(=O)Nc3c(Cl)cc(Cl)cc3Cl)c3ccccc3n2)cc(OC)c1OC returned TDP1 cell CPT 21µM, TDP1 inh inactive, uPA generation inactive, miR-21 FLuc inactive and DT40 TDP1 no CPT 18µM.
`COc1cc(-c2cc(C(=O)Nc3ccc(S(N)(=O)=O)cc3)c3ccccc3n2)cc(OC)c1OC` gave TDP1 cell CPT 4.1µM, uPA generation inactive, miR-21 FLuc inactive and DT40 TDP1 no CPT 3.7µM.
Screening CCN(CC)S(=O)(=O)c1ccc(O)c(NC(=O)c2cc(-c3cc(OC)c(OC)c(OC)c3)nc3ccccc23)c1 returned TDP1 cell CPT inconclusive, TDP1 inh inactive, uPA generation inactive, miR-21 FLuc inactive and DT40 TDP1 no CPT 21µM.
COc1cc(-c2cc(C(=O)NN3CCN(C)CC3)c3ccccc3n2)cc(OC)c1OC was read as TDP1 inh inactive and miR-21 FLuc inactive.
`COc1cc(-c2cc(C(=O)Nc3cccc(S(=O)(=O)N(C)C)c3)c3ccccc3n2)cc(OC)c1OC` gave TDP1 cell CPT inactive, uPA generation inactive, miR-21 FLuc inactive and DT40 TDP1 no CPT inactive.
Cc1ccc(C(=O)NCc2ccco2)cc1S(=O)(=O)Nc1cccc(Cl)c1 was read as TDP1 cell CPT inactive, TDP1 inh inactive, uPA generation inactive, miR-21 FLuc inactive and DT40 TDP1 no CPT inactive.
CCCC(=O)Nc1ccc2c(c1)COC2=O was read as TDP1 cell CPT inactive, TDP1 inh inactive, uPA generation inactive, miR-21 FLuc inactive and DT40 TDP1 no CPT inactive.
Screening CC(NC(=O)c1ccc2c(c1)OCO2)C(c1cccs1)N1CCN(c2ccccc2)CC1 (stereo not drawn) returned TDP1 cell CPT inconclusive, TDP1 inh inactive, uPA generation inactive, miR-21 FLuc inactive and DT40 TDP1 no CPT 18µM.
For CC(C)C(=O)NC(C)C(c1cccs1)N1CCN(c2ccccc2)CC1 (stereo not drawn) the results were TDP1 cell CPT inconclusive, uPA generation inactive, miR-21 FLuc inactive and DT40 TDP1 no CPT 21µM.
Screening CC(NC(=O)NC1CCCCC1)C(c1cccs1)N1CCN(c2ccccc2)CC1 (stereo not drawn) returned TDP1 cell CPT inconclusive, TDP1 inh inactive, uPA generation 10µM, miR-21 FLuc inactive and DT40 TDP1 no CPT 21µM.
